Results taken from patent publication US7220875B2, “Amino acid derived prodrugs of propofol, compositions and uses thereof” (priority 2003, dated 2007).

Columns and labels:
[1] = Enzymatic cleavage of prodrugs in vitro, rat plasma; format: in vitro ADME; conditions: substrate 2.0 μM, 37° C.
Experimental: (§1) The stability of propofol prodrugs were evaluated in one or more in vitro systems using a variety of tissue preparations following methods known in the art. Tissues were obtained from commercial sources (e.g., Pel-Freez Biologicals, Rogers, Ark., or GenTest Corporation, Woburn, Mass.). Experimental conditions used for the in vitro studies are described in Table 1 below. Each preparation was incubated with test compound at 37° C. for one hour. Aliquots (50 μL) were removed at 0, 30, and 60 min and quenched with 0.1% trifluoroacetic acid in acetonitrile. Samples were then centrifuged and analyzed by LC/MS/MS (see Examples 59 and 60 below for method details). Stability of drug conjugates towards specific enzymes (e.g., peptidases, etc.) were also assessed in vitro by incubation with the purified enzyme: […]

[2] = Enzymatic cleavage of prodrugs in vitro, human liver S9; format: in vitro ADME; conditions: Human Liver S9 (0.5 mg/mL), substrate 2.0 μM, NADPH, 37° C.
Experimental: as §1

[3] = Enzymatic cleavage of prodrugs in vitro, human plasma; format: in vitro ADME; conditions: substrate 2.0 μM, 37° C.
Experimental: as §1

[4] = Caco-2 homogenate S9 stability; format: in vitro ADME; conditions: Caco-2 S9 (0.5 mg protein per mL), prodrug 5 μM, 37° C.
Experimental: (§2) The stability of propofol prodrugs were evaluated in one or more in vitro systems using a variety of tissue preparations following methods known in the art. Tissues were obtained from commercial sources (e.g., Pel-Freez Biologicals, Rogers, Ark., or GenTest Corporation, Woburn, Mass.). Experimental conditions used for the in vitro studies are described in Table 1 below. Each preparation was incubated with test compound at 37° C. for one hour. Aliquots (50 μL) were removed at 0, 30, and 60 min and quenched with 0.1% trifluoroacetic acid in acetonitrile. Samples were then centrifuged and analyzed by LC/MS/MS (see Examples 59 and 60 below for method details). Stability of drug conjugates towards specific enzymes (e.g., peptidases, etc.) were also assessed in vitro by incubation with the purified enzyme:
Caco-2 Homogenate S9 Stability: Caco-2 cells were grown for 21 days prior to harvesting. Culture medium was removed and cell monolayers were rinsed and scraped off into ice-cold 10 mM sodium phosphate/0.15 M potassium chloride, pH 7.4. Cells were lysed by sonication at 4° C. using a probe sonicator. Lysed cells were then transferred into 1.5 mL centrifuge vials and centrifuged at 9000 g for 20 min at 4° C. The resulting supernatant (Caco-2 cell homogenate S9 fraction) was aliquoted into 0.5 mL vials and stored at −80° C. until used.
For stability studies, prodrug (5 μM) was incubated in Caco-2 homogenate S9 fraction (0.5 mg protein per mL) for 60 min at 37° C. Concentrations of intact prodrug and released propofol were determined at zero time and 60 minutes using LC/MS/MS.

pancreatin = test: Pancreatin stability; format: in vitro ADME, porcine; conditions: 1% (w/v) pancreatin, pH 7.5, conjugate 5 μM, 37° C.
Experimental: as §2
Pancreatin Stability: Stability studies were conducted by incubating conjugate (5 μM) with 1% (w/v) pancreatin (Sigma, P-1625, from porcine pancreas) in 0.025 M Tris buffer containing 0.5 M NaCl (pH 7.5) at 37° C. for 60 min. The reaction was stopped by addition of 2 volumes of methanol. After centrifugation at 14,000 rpm for 10 min, the supernatant was removed and analyzed by LC/MS/MS.

[5] = Enzymatic cleavage of prodrugs in vitro, rat liver S9; format: in vitro ADME; conditions: Rat Liver S9 (0.5 mg/mL), substrate 2.0 μM, NADPH, 37° C.
Experimental: as §1

Row | Substance | % of Propofol Released from Propofol Prodrugs after 60 min. [1] [%] | % of Propofol Released from Propofol Prodrugs after 60 min. [2] [%] | % of Propofol Released from Propofol Prodrugs after 60 min. [3] [%] | % of Propofol Released from Propofol Prodrugs after 60 min. [4] [%] | % of Propofol Released from Propofol Prodrugs after 60 min. (pancreatin) [%] | % of Propofol Released from Propofol Prodrugs after 60 min. [5] [%]
1 | H-Ala-OPropofol Hydrochloride [Compound 152] | 37 | 8 | 0 | 6 | 1 | 11
2 | H-Lys-Glu(OPropofol)-OH [Compound 250] | 79 | 34 | 17 | 19 | 0 | 36
3 | H-Ser-Ser(β-OC(O)OPropofol)-OH [Compound 208] | – | 3 | 2 | 21 | 25 | –
